Test results published in patent publication EP0248972A2, “Ammoniummonofluorophosphates, process for their preparation and their use” (Benckiser-Knapsack GmbH, priority 1986, dated 1987).

Experiment: Solubility in glycerol
Type: physicochemical

Q: Which “Löslichkeit in Glycerin” value does the source give for CCCCCCCC/C=C\CCCCCCCCNCCCN [N-Oleyl-1,3-diammoniumpropanmonofluorophosphat] here?
A: Its value is over 10%.
